Experimental findings from patent publication US11053216B2, “Compounds and methods of use” (Medivation Technologies LLC, priority 2014, dated 2021) are described below.

The test deals with p-SMAD2. The experiment in a line: p-SMAD2 inhibition, Western Blot Analysis in TGFβ-stimulated MDA-MB-231 cells. Type of test: cell-based.

With `C=C(C)c1cnc(-c2cc(Cl)ccc2F)cc1Nc1ccncc1C(=O)N[C@@H](CO)C(C)C` [25a, 4-[[2-(5-chloro-2-fluoro-phenyl)-5-vinyl-4-pyridyl]amino]-N-[(1R)-1-(hydroxymethyl)-2-methyl-propyl]pyridine-3-carboxamide], the “Average p-SMAD2 inhibition @ 0.1 μM (% Inh)” value was determined as 15.33 % Inh and the “Average p-SMAD2 inhibition @ 0.5 μM (% Inh)” value was 18.67 % Inh. In the case of `C=C(C)c1cnc(-c2cc(Cl)ccc2F)cc1Nc1ccncc1C(=O)N[C@@H](CC)CO` (single isomer, unassigned) [24a], the “Average p-SMAD2 inhibition @ 0.1 μM (% Inh)” value was determined as 17.00 % Inh and the “Average p-SMAD2 inhibition @ 0.5 μM (% Inh)” value is 68.33 % Inh. For `CC(C)c1cnc(-c2cc(Cl)ccc2F)cc1Nc1ccncc1C(=O)NCCN` [compound 19, N-(2-aminoethyl)-4-[[2-(5-chloro-2-fluoro-phenyl)-5-isopropyl-4-pyridyl]amino] pyridine-3-carboxamide], the “Average p-SMAD2 inhibition @ 0.5 μM (% Inh)” value was 93.00 % Inh. Regarding `C=C(C)c1cnc(-c2cc(Cl)ccc2F)cc1Nc1ccncc1C(=O)NC[C@H](C)O` [3a, (S)-4-(2-(5-chloro-2-fluorophenyl)-5-(prop-1-en-2-yl)pyridin-4-ylamino)-N-(2-hydroxypropyl)pyridine-5-carboxamide], the “Average p-SMAD2 inhibition @ 0.1 μM (% Inh)” value turned out to be 45.67 % Inh and the “Average p-SMAD2 inhibition @ 0.5 μM (% Inh)” value came to 78.00 % Inh. Take `CC(C)c1cnc(-c2cc(Cl)ccc2F)cc1Nc1ccncc1C(=O)NC(CO)CO` [compound 22, 4-[[2-(5-chloro-2-fluoro-phenyl)-5-isopropyl-4-pyridyl]amino]-N-[2-hydroxy-1-(hydroxymethyl)ethyl]pyridine-3-carboxamide]: the “Average p-SMAD2 inhibition @ 0.1 μM (% Inh)” value turned out to be 50.00 % Inh.

As for `CC(=O)NCCNC(=O)c1cnccc1Nc1cc(-c2cc(Cl)ccc2F)ncc1C(C)C` [compound 14, N-(2-acetamidoethyl)-4-[[2-(5-chloro-2-fluoro-phenyl)-5-isopropyl-4-pyridyl]amino]pyridine-3-carboxamide], the “Average p-SMAD2 inhibition @ 0.1 μM (% Inh)” value was 45.00 % Inh. Consider `C=C(C)c1cnc(-c2cc(Cl)ccc2F)cc1Nc1ccncc1C(=O)NCCO` [compound 26, 4-[[2-(5-chloro-2-fluoro-phenyl)-5-isopropenyl-4-pyridyl]amino]-N-(2-hydroxyethyl)pyridine-3-carboxamide], for which the “Average p-SMAD2 inhibition @ 0.1 μM (% Inh)” value is on record as 64.00 % Inh and the “Average p-SMAD2 inhibition @ 0.5 μM (% Inh)” value is 89.00 % Inh.

Take `C=C(C)c1cnc(-c2cc(Cl)ccc2F)cc1Nc1ccncc1C(=O)N[C@H](CO)C(C)C` [25b, 4-[[2-(5-chloro-2-fluoro-phenyl)-5-vinyl-4-pyridyl]amino]-N-[(1S)-1-(hydroxymethyl)-2-methyl-propyl]pyridine-3-carboxamide]: the “Average p-SMAD2 inhibition @ 0.1 μM (% Inh)” value was determined as 14.33 % Inh and the “Average p-SMAD2 inhibition @ 0.5 μM (% Inh)” value was found to be 12.67 % Inh.

Consider `C=C(C)c1cnc(-c2cc(Cl)ccc2F)cc1Nc1ccncc1C(=O)N[C@H](C)CO` [7b, (2R)-4-[[2-(5-chloro-2-fluoro-phenyl)-5-isopropenyl-4-pyridyl]amino]-N-(2-hydroxy-1-methyl-ethyl)pyridine-3-carboxamide], for which the “Average p-SMAD2 inhibition @ 0.1 μM (% Inh)” value was found to be 36.33 % Inh and the “Average p-SMAD2 inhibition @ 0.5 μM (% Inh)” value was found to be 78.67 % Inh. As for `COC(C)(C)c1cnc(-c2cc(Cl)ccc2F)cc1Nc1ccncc1C(=O)NCC(C)O` (single isomer, unassigned) [17a, 4-[[2-(5-chloro-2-fluoro-phenyl)-5-(1-methoxy-1-methyl-ethyl)-4-pyridyl]amino]-N-(2-hydroxypropyl)pyridine-3-carboxamide], the “Average p-SMAD2 inhibition @ 0.1 μM (% Inh)” value stood at 25.33 % Inh and the “Average p-SMAD2 inhibition @ 0.5 μM (% Inh)” value stood at 81.67 % Inh. As to `C=C(C)c1c(Nc2ccncc2C(=O)NC[C@H](C)O)cc(-c2cc(Cl)ccc2F)nc1N` (single isomer, unassigned) [23a], the “Average p-SMAD2 inhibition @ 0.1 μM (% Inh)” value came to 46.33 % Inh and the “Average p-SMAD2 inhibition @ 0.5 μM (% Inh)” value came to 93.67 % Inh.
